ChEMBL document CHEMBL5647680 (Cancer Res, 2006)

Chains of the proteins cited; added tags and fusions are not shown.
UniProt P35918, whole entry: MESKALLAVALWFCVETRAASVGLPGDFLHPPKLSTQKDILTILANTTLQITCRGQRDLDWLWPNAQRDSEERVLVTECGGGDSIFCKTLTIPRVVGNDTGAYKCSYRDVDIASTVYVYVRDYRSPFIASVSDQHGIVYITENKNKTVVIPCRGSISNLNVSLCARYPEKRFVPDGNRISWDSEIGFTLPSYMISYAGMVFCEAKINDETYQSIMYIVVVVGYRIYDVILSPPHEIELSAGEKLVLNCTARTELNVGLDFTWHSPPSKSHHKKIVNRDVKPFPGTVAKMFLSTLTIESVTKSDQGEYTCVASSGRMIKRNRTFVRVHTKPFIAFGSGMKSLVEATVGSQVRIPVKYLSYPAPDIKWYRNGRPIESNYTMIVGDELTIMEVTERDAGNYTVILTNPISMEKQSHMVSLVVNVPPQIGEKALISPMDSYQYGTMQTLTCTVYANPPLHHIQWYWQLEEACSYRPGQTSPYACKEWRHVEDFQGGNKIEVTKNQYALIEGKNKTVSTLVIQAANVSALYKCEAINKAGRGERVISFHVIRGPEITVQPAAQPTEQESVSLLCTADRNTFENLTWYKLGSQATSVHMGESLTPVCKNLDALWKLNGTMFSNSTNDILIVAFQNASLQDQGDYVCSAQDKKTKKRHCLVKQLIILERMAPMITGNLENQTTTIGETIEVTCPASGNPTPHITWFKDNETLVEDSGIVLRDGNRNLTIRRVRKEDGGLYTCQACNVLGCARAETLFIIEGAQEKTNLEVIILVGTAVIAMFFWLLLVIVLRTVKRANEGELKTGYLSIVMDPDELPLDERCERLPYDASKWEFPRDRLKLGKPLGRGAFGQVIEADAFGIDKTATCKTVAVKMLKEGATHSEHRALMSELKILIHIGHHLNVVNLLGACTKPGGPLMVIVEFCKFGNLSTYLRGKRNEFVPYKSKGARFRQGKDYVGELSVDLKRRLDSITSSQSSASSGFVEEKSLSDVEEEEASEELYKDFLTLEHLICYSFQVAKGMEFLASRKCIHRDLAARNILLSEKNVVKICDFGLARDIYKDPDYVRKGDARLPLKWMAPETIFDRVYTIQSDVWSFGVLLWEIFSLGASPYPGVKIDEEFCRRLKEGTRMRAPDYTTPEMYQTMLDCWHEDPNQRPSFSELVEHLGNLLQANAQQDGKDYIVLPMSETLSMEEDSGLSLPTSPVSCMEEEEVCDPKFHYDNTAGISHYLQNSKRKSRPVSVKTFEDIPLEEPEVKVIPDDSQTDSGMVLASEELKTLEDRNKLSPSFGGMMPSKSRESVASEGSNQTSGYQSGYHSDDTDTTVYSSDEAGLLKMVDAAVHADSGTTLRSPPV

Target: Vascular endothelial growth factor receptor 2 (Mus musculus, UniProt P35918)
Experiment: Inhibition of mouse VEGFR2 using gastrin peptide as substrate and ATP concentration two-thirds of Km by HTRF assay

pIC50: 8.22
SMILES: CC1(C)CNc2cc(NC(=O)c3cccnc3NCc3ccncc3)ccc21 [MOTESANIB]

pIC50: −log10 of the molar value.
